Experiments:
mannosidase I = assay: N-glycan profiling of SK-BR-3 cells after inhibitor/ADC treatment (mannosidase I inhibition); format: cell-based; conditions: 1 pM, 3 days
[1] = test system: immature dendritic cells (iDCs) with SK-BR-3 cells; assay: Dendritic cell activation assay (iDC / SK-BR-3 co-culture, fractalkine secretion); format: cell-based, human; conditions: 5 nM test compound
Source text: Monocytes were isolated from human peripheral blood (buffy coat) from healthy adult donors (Finnish Red Cross Blood Service) by using magnetic-activated microbead based cell sorting for CD14 positive cells (Miltenyi Biotec). Monocytes were differentiated to immature dendritic cells (iDCs) by using Mo-DC Differentiation Medium (Miltenyi Biotec) according the manufacturer's instructions. On day 6, to analyze cell surface expression of maturation markers, the iDCs were labeled with specific monoclonal antibodies for CD209 (R&D Systems) and CD14 (eBioscience). Nonspecific antibody binding was assessed using appropriate isotype controls. The iDCs were used for co-culture experiment on day 7.
SK-BR-3 cells (ATCC) were cultured in DMEM (Gibco) containing GlutaMAX and supplemented with 10% heat-inactivated fetal bovine serum (FBS, Gibco). SK-BR-3 cells were plated in 96-well plate (5000 c/well) in the presence or absence of […] kifunensine (Carbosynth Limited) and cultured for 5 days. Before start of the co-culture, SK-BR-3 cells were washed twice with RPMI 1640 medium (Gibco). Differentiated iDCs were collected and 0.11×10^6 cells/well were added together with the test compounds to SK-BR-3 cells and cells were incubated for 24 h at +37° C. in 5% CO2. The experiment medium was RPMI 1640 medium (Gibco) containing 10 mM Hepes and 2 mM glutamine and supplemented with 10% FBS (Gibco). […]

Substance: trastuzumab: human HER2-specific antibody (Herceptin, Roche)
- N-glycan profile (FIG. 6A = profile of control cells, no treatment) (mannosidase I): as shown in FIG. 6A
- Fractalkine ([1]; SK-BR-3 + iDCs 24 h co-culture, without kifunensine pretreatment): 50.64 pg/mL
- Fractalkine ([1]; iDCs without SK-BR-3 cells): 1.98 pg/mL

Reference: US20230038373A1, “STABILE CONJUGATE” (Glykos Biomedical OY, priority 2019, published 2023)
